Values quoted from earlier work, collected in patent publication US20110294879A1, “METHOD OF TREATMENT OF FRAGILE X SYNDROME, DOWN'S SYNDROME, AUTISM AND RELATED DISORDERS” (XENOPORT, INC., priority 2010, published 2011).

System: autistic children

**Q.** With `Cc1nc2n(c(=O)c1CCN1CCC(c3noc4cc(F)ccc34)CC1)CCCC2` [risperidone] as the molecule, how does the adverse events read?
**A.** weight gain, increased appetite, fatigue, drowsiness, dizziness, and drooling
